Source: ChEMBL document CHEMBL4673243, “Discovery of 9-Cyclopropylethynyl-2-((S)-1-[1,4]dioxan-2-ylmethoxy)-6,7-dihydropyrimido[6,1-a]isoquinolin-4-one (GLPG1205), a Unique GPR84 Negative Allosteric Modulator Undergoing Evaluation in a Phase II Clinical Trial” (J Med Chem, 2020)
The source made the active and inactive calls. The calls are words filed in the database; no cut-off is given here.

Protein sequences, listed by entry. Tags and fused reporters are not part of them. Lines headed by an entry give the natural chain unless they say otherwise; changes in a name come on top.
UniProt Q9NQS5: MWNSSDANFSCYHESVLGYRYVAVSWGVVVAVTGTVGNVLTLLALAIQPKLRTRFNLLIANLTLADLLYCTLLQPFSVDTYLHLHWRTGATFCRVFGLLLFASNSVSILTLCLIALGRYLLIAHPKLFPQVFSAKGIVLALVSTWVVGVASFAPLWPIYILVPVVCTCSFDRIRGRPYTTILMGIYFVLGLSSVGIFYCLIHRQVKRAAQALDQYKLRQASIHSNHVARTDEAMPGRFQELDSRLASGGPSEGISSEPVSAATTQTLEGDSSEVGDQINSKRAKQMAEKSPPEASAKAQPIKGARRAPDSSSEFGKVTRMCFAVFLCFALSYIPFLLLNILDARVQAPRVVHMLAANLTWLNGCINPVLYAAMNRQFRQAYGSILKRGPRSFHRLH

Legend:
[1] = target: G-protein coupled receptor 84 (Homo sapiens) (UniProt Q9NQS5); assay: Displacement of [3H]-9-(2-phenylethyl)-2-(2-pyrazin-2-yloxyethoxy)-6,7-dihydropyrimido[6,1-a]isoquinolin-4-one from recombinant FLAG-tagged GPR84 (unknown origin) expressed in T-REx-293 cells co-expressing Galphai2 incubated for 1 hr by liquid scintillation counting analysis; format: cell-based
Mus musculus [2] = assay: Antiinflammatory activity in Balb/cj mouse model of DSS-induced colitis assessed as reduction in DAI score at 3 to 10 mg/kg, po qd using PEG-200/water formulation administered starting from day 1 to 11 and measured everyday; format: functional, organism-based; details: dose 3-10 mg/kg, time 1-11 day
Mus musculus [3] = assay: Antiinflammatory activity in Balb/cj mouse model of DSS-induced colitis assessed as reduction in neutrophil infiltration in colon at 3 to 10 mg/kg, po qd using PEG-200/water formulation administered from day 1 to 11 by immunohistochemistry analysis; format: functional, organism-based; details: dose 3-10 mg/kg, time 1-11 day
Mus musculus [4] = assay: Antiinflammatory activity in po dosed Balb/cj mouse model of DSS-induced colitis assessed as reduction in DAI score administered starting administered once daily for 11 days measured during compound dosing; format: functional, organism-based; details: time 11.0 day

## Fc1cc(F)c2[nH]cc(Cc3c[nH]c4c(F)cc(F)cc34)c2c1
[1]; filed as negative allosteric modulator
  Activity: Active

## O=c1nc(OC[C@@H]2COCCO2)cc2n1CCc1cc(C#CC3CC3)ccc1-2 [GLPG-1205]
Mus musculus [2]
  Activity: Active
Mus musculus [3]
  Activity: Active

## O=c1nc(OCC2COCCO2)cc2n1CCc1cc(C#CC3CC3)ccc1-2 (racemic)
Mus musculus [4]
  Activity: Dose-dependent effect

## CCCCCCCCCC(=O)O
[1]
  Activity: inactive
